In PubChem BioAssay AID2147 (National Center for Advancing Translational Sciences (NCATS), 2009):
Only a part is listed here, and it is no random draw. Inconclusive results are not listed. Active and inactive are the calls of the source. Calls follow the shape of the dose curve; as a rule, active = well fitted inhibition curve with a large enough effect (not every such curve was filed as active); inconclusive = small, poorly fitted or top-dose-only effect, or another doubt; inactive = no such curve, though single readings can be large or run the other way.

Amino acid sequences for entries named in this document (tags omitted). Residues count along the entry.
UniProt B2RXH2, 1-337 limits assumed: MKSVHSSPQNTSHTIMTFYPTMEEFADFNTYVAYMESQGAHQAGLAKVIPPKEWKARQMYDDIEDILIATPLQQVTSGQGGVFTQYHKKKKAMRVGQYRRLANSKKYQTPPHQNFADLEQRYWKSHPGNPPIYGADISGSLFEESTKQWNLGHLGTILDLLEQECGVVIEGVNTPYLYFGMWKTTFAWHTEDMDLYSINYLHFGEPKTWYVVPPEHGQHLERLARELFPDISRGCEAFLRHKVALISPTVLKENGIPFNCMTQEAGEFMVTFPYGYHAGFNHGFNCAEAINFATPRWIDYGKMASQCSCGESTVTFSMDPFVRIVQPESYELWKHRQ

What follows are compounds tested against Lysine-specific demethylase 4E (Homo sapiens) (UniProt B2RXH2) (assay: qHTS Assay for Inhibitors of Human Jumonji Domain Containing 2E (JMJD2E)). Conditions: JMJD2E catalytic domain, FDH-coupled NADH fluorescence (FDH is formaldehyde dehydrogenase); at 57.1 µM (top of the series).
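Also: 0% = wells with enzyme and -100% = buffer wells without enzyme; nearly all actives have a fitted effect of over 50% in size.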

Row | Compound | activity change, negative = inhibition
1 | CN(CCCl)CCCl | inactive: -4.23%
